# Target: human mineralocorticoid receptor (MR) (Homo sapiens, UniProt P08235)
# Chains of the proteins cited; added tags and fusions are not shown. Residues count along the entry.
# UniProt P08235, 734-984 limits assumed: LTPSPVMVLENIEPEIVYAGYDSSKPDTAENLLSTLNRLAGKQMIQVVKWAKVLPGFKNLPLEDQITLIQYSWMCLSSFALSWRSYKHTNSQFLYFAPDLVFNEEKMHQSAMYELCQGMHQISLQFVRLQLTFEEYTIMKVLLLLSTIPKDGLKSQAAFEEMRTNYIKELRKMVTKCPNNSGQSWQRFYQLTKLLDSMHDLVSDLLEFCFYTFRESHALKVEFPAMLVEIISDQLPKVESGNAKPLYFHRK
# Assay: Cellular in vitro assay to determine the inhibitory MR activity (GAL4-MR chimera, luciferase reporter, CHO K1 cells)
# Conditions: read-out: MR IC50; recombinant CHO K1 cells, GAL4-MR ligand-binding domain chimera, agonist aldosterone, luciferase readout
row,IC50,SMILES
1,55 nM,"CCOc1nc(C)cc2c1C(c1ccc(C#N)cc1OC)C(C#N)=C(C)N2 (centres unmarked) [Example 35, 4-(4-Cyano-2-methoxyphenyl)-5-ethoxy-2,7-dimethyl-1,4-dihydro-1,6-naphthyridine-3-carbonitrile]"
2,25 nM,"CCOc1ncc(C)c2c1C(c1ccc(C#N)cc1OC)C(C#N)=C(C)N2 (centres unmarked) [Example 37, 4-(4-Cyano-2-methoxyphenyl)-5-ethoxy-2,8-dimethyl-1,4-dihydro-1,6-naphthyridine-3-carbonitrile]"

# — patent US8404709B2, “Substituted 4-aryl-1,4-dihydro-1,6-naphthyridines and use thereof” (Bayer Intellectual Property GmbH, priority 2007, dated 2013)
